Among the data in article PMC5717261 (Scientific Reports, 2017) are Kd, koff and kon values, retold here.

For assay [1], the target named is T1, Recombinant human bone morphogenetic protein-1 (BMP-1) with a C-terminal FLAG tag (human, UniProt P13497-2 121-730).
T1 construct: BMP-1, human; the shorter splice product of the gene that also gives mTLD (identical to mTLD up to the end of the CUB3 domain); source: HEK 293-EBNA cells, purified
T1 sequence (looked up): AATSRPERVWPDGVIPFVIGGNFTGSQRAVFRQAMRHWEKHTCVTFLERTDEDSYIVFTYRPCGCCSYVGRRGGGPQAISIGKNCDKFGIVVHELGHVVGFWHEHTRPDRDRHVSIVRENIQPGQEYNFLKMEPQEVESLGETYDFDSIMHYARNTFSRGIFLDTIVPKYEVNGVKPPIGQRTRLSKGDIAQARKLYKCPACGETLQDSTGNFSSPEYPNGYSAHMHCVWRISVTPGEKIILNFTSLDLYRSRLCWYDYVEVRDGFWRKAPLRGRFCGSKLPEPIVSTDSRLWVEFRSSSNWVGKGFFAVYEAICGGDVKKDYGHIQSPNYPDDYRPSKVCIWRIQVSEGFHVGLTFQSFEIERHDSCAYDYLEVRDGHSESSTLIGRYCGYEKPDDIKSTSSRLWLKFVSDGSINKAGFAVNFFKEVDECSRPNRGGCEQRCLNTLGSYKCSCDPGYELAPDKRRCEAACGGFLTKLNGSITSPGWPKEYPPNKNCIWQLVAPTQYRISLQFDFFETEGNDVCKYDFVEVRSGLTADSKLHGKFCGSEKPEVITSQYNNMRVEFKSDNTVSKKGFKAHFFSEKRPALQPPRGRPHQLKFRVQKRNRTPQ
Briefly: SPR; BIAcore 3000, 25 °C; BMP-1, mTLL-1 or MASP-2 immobilised by amine coupling on CM5; C1q or MBL injected (60 µl, 20 µl/min) at several concentrations in 50 mM triethanolamine-HCl, 145 mM NaCl, 2 mM CaCl2, 0.005% surfactant P20, pH 7.4; global fit to a 1:1 Langmuir model; apparent KD from kd/ka. The conditions noted are these: both partners purified.

The target of assay [2] is T2, Recombinant human mammalian tolloid-like-1 (mTLL-1) with a C-terminal 6x-His tag (human, UniProt O43897 148-1013).
T2 construct: mammalian tolloid-like-1 (mTLL-1), human; also called mTTL-1; source: HEK 293-EBNA cells, purified
T2 sequence (looked up): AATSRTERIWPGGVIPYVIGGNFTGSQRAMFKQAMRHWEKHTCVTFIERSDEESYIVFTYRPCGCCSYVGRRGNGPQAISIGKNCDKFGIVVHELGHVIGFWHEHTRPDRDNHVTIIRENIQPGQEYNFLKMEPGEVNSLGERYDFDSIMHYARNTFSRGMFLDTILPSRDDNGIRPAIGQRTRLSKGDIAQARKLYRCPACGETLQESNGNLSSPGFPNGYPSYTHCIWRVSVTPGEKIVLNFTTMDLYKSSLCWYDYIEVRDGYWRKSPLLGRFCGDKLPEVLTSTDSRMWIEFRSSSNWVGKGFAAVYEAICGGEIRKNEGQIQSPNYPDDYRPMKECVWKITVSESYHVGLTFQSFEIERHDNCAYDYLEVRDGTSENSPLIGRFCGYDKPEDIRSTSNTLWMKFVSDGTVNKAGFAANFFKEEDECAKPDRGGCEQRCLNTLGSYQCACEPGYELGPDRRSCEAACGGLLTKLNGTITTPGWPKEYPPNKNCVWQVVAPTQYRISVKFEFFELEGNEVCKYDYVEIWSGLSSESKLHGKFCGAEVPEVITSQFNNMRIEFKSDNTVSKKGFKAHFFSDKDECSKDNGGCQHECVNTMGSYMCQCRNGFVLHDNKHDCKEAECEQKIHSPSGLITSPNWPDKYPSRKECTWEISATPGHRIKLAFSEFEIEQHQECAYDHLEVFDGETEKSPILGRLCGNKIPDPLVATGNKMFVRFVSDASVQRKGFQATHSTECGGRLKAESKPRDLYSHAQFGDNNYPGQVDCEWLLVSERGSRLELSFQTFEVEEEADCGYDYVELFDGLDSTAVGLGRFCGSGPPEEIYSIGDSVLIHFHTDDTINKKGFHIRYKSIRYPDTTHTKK
The description is as above. The conditions noted are these: both partners purified.

B1: Recombinant human mannose-binding lectin (MBL) (natural protein, UniProt P11226 21-248, looked up)
chain: ETVTCEDAQKTCPAVIACSSPGINGFPGKDGRDGTKGEKGEPGQGLRGLQGPPGKLGPPGNPGPSGSPGPKGQKGDPGKSPDGDSSLAASERKALQTEMARIKKWLTFSLGKQVGNKFFLTNGEIMTFEKVKALCVKFQASVATPRNAAENGAIQNLIKEEAFLGITDEKTEGQFVDLTGNRLTYTNWNEGEPNNAGSDEDCVLLLKNGQWNDVPCSTSHLAVCEFPI
notes: Mixture of oligomers; also called wild-type (wt) MBL; source: Freestyle 293-F cells, purified (N-acetylglucosamine-agarose)
Consider B1, for which, in assay [1], the Kd turned out to be 1.3 nM, the koff worked out at 0.00087 s⁻¹ and the kon came to 740000 M⁻¹ s⁻¹. Further, in assay [2], the Kd amounted to 0.58 nM, the koff turned out to be 0.00082 s⁻¹ and the kon was 1.4e+06 M⁻¹ s⁻¹.
